The structures appear in SMILES notation. Entries after “also recorded” stand apart in the source; their conditions may differ.

Experimental findings from US12605384B2, “Uses” (INTRA-CELLULAR THERAPIES, INC., priority 2018, dated 2026) are described below.

Assay [1] deals with New Zealand White rabbits. The experiment in a line: Pressure-volume hemodynamics in anesthetized rabbits. The assay is classed as in vivo, rabbit. The following applies: 0.1 mg/kg i.v. bolus, alone. The procedure:
Cyclic AMP is generated largely by transmembrane adenylyl cyclases activated via stimulatory G protein (Gs), with β-adrenergic, adenosine (primarily […]), glucagon, prostanoids, histamine, and serotonin all coupling to Gs in cardiomyocytes. The present studies focus on beta-adrenergic and adenosine receptors, and for the latter, concentrated on the A2B receptor, which has been reported to directly stimulate cAMP-dependent contractility. Anesthetized rabbits are administered a bolus intravenous Compound 1 at 0.1 mg/kg (dose based on dog results) with or without prior treatment with the selective β1-blocker esmolol or the adenosine A2BR blocker MRS-1754. […] Relaxation changes are also modest with LV preload (end-diastolic and volume) unaltered; however, the combined vasodilator-inotropic response doubled ventricular/arterial coupling ratio, Ees/Ea.
New Zealand White rabbits (male, 2-3 kg) are sedated with 35 mg/kg ketamine and 5 mg/kg xylazine, intubated and ventilated (Model 683, Harvard Apparatus, Holliston, MA), with anesthesia maintained with isoflurane inhalation (1-2%). […] The parallel conductance is determined by the hypertonic saline injection method. […]

Assay [2] has as its system patients with stable chronic systolic HF. The experiment in a line: Phase Ib/IIa single ascending dose study in human heart failure. The format is in vivo. The following applies: 30 mg, in comparison with placebo. The procedure:
A Phase Ib/IIa, multi center, double-blind, randomized, placebo-controlled single ascending dose study of Compound 1 in patients with stable chronic systolic HF (NYHA Class II-II, LVEF≤35%) was conducted to evaluate the impact of a single oral dose of Compound 1 on cardiac systolic and diastolic function. Participants were randomized 3:1 in 3-groups of 12 to receive either Compound 1 at 10 mg, 30 mg, 90 mg. A further group was administered placebo.
Hemodynamic monitoring began 30-60 minutes prior to the pre-dose echocardiogram through to 5-6 hours post-dose.
Supine and orthostatic blood pressure and heart rate were recorded pre-dose, as well as 60 and 40 minutes post-dose. Continuous electrocardiographic monitoring starting up to 30-60 minutes prior to the pre-dose echocardiogram through to 5-6 hours post-dose including measurement of ectopic arrhythmias pre- and post-dose.

Take `CN1C(=O)c2c(nn(Cc3ccc(-c4cccc(F)n4)cc3)c2Nc2ccccc2)N2C1=N[C@@H]1CCC[C@@H]12` [Compound 1, (6aR,9aS)-2-(4-(6-fluoropyridin-2-yl)benzyl)-5-methyl-3-(phenyl-amino)-5,6a,7,8,9,9a-hexahydrocyclopenta-[4,5]imidazo[1,2-a]pyrazolo[4,3-e]pyrimidin-4-(2H)-one monophosphate]: the “ventricular/arterial coupling ratio, Ees/Ea” value in assay [1] is on record as “doubled”. In addition, in assay [2], the “mean power index (mPWRi) and cardiac output (CO)” value is “significantly greater increases; also recorded: significantly increased”.
